Results published in patent publication US20050026911A1, “Benzotriazapinone salts and methods for using same” (priority 2003, published 2005).

The molecules below were run against T1, gastrin (CCK2) receptors (Rattus norvegicus, UniProt P30553) (assay: gastrin (CCK2) antagonist activity in an immature rat stomach assay). Settings: pentagastrin dose-response curves, acid secretion, read-out: pKB rat stomach (converted).
T1 construct: The stomach was excised and flushed with ca. 1 ml of unbuffered physiological saline solution; from tissue; host or cells: isolated whole stomach of immature rats (ca. 21 days old)
T1 sequence (P30553 1-452): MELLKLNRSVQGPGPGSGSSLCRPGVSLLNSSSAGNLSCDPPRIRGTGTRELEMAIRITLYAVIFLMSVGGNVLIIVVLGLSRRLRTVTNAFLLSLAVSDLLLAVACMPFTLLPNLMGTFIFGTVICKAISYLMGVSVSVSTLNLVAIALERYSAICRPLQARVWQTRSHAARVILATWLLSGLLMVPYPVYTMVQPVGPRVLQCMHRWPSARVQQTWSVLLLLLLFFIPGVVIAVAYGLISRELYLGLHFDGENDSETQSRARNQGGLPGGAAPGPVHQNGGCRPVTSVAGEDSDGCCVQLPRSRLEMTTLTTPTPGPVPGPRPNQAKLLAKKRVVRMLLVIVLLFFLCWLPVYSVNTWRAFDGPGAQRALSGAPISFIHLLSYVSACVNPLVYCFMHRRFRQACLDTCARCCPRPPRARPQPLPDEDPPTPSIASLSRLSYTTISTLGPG
Procedure: The compounds of the examples were tested for gastrin (CCK2) antagonist activity in an immature rat stomach assay. The procedure was as follows:
The oesophagus of immature rats (33-50 g, ca. 21 days old) was ligated at the level of the cardiac sphincter and the duodenal sphincter was cannulated. The stomach was excised and flushed with ca. 1 ml of unbuffered physiological saline solution. The fundus was punctured and cannulated. A further 4-5 ml of unbuffered solution was flushed through the stomach to ensure the preparation was not leaking. […] The stomach was continuously perfused at a rate of 1 ml min^−1 with unbuffered solution gassed with 100% O2 with the perfusate passing over an internally referenced pH-electrode fixed 12 cm above the stomach.
After 120 min of stabilisation the drugs were added directly to the serosal solution in the organ bath and after a further 60 min cumulative pentagastrin dose-response curves were started.

SMILES	Kb [nM]
CNc1cccc(NC(=O)CN2N=C(C3CCCCC3)c3ccccc3N(CC(=O)C(C)(C)C)C2=O)c1 [Example 3, 2-[5-Cyclohexyl-1-(3,3-dimethyl-2-oxo-butyl)-2-oxo-1,2-dihydro-3H-1,3,4-benzotriazepin-3-yl]-N-(3-methylamino-phenyl)-acetamide]	7.94
Cc1ccccc1C(=O)CN1C(=O)N(CC(=O)Nc2cccc(C(=O)O)c2)N=C(C2CCCCC2)c2ccccc21 [Example 15, 3-{2-[5-Cyclohexyl-2-oxo-1-(2-oxo-2-o-tolyl-ethyl)-1,2-dihydro-3H-1,3,4-benzotriazepin-3-yl]-acetylamino}-benzoic acid]	9.55
O=C(CN1N=C(C2CCCCC2)c2ccccc2N(CC(=O)N2CCCC2)C1=O)Nc1cccc(C(=O)O)c1 [Example 20, 3-{2-[5-Cyclohexyl-2-oxo-1-(2-oxo-2-pyrrolidin-1-yl-ethyl)-1,2-dihydro-3H-1,3,4-benzotriazepin-3-yl]-acetylamino}-benzoic acid]	58.9
CC(C)(C)C(=O)CN1C(=O)N(CC(=O)Nc2cccc(N3CCCC3)c2)N=C(C2CCCCC2)c2ccccc21 [Example 27, 2-[5-Cyclohexyl-1-(3,3-dimethyl-2-oxo-butyl)-2-oxo-1,2-dihydro-3H-1,3,4-benzotriazepin-3-yl]-N-(3-pyrrolidin-1-yl-phenyl)-acetamide]	145
CC(C)(C)C(=O)CN1C(=O)N(CC(=O)Nc2cccc(CO)c2)N=C(C2CCCCC2)c2ccccc21 [Example 48, 2-[5-Cyclohexyl-1-(3,3-dimethyl-2-oxo-butyl)-2-oxo-1,2-dihydro-3H-1,3,4-benzotriazepin-3-yl]-N-(3-hydroxymethyl-phenyl)-acetamide]	17
CC(C)(C)C(=O)CN1C(=O)N(CC(=O)Nc2cccc(OCC(=O)O)c2)N=C(C2CCCCC2)c2ccccc21 [Example 53, (3-{2-[5-Cyclohexyl-1-(3,3-dimethyl-2-oxo-butyl)-2-oxo-1,2-dihydro-3H-1,3,4-benzotriazepin-3-yl]-acetylamino}-phenoxy)-acetic acid]	20.9
CC(C)(C)C(=O)CN1C(=O)N(CC(=O)Nc2cccc(C(=O)O)c2)N=C(C2CCCCCC2)c2ccccc21 [Example 55, 3-{2-[5-Cycloheptyl-1-(3,3-dimethyl-2-oxo-butyl)2-oxo-1,2-dihydro-3H-1,3,4-benzotriazepin-3-yl]-acetylamino}-benzoic acid]	0.692
CC(C)(C)C(=O)CN1C(=O)N(CC(=O)Nc2cccc(N)c2)N=C(C2CCCCC2)c2ccccc21 [Example 85, N-(3-Amino-phenyl)-2-[5-cyclohexyl-1-(3,3-dimethyl-2-oxo-butyl)-2-oxo-1,2-dihydro-3H-1,3,4-benzotriazepin-3-yl]-acetamide]	36.3
CC(C)(C)C(=O)CN1C(=O)N(CC(=O)Nc2cccc(-c3cn(CC(=O)O)cn3)c2)N=C(C2CCCCC2)c2ccccc21 [Example 97, [4-(3-{2-[5-Cyclohexyl-1-(3,3-dimethyl-2-oxo-butyl)-2-oxo-1,2-dihydro-3H-1,3,4-benzotriazepin-3-yl]-acetylamino}-phenyl)-imidazol-1-yl]-acetic acid]	25.7
CC(C)(C)C(=O)CN1C(=O)N(CC(=O)Nc2cccc(-c3cccn3CC(=O)O)c2)N=C(C2CCCCC2)c2ccccc21 [Example 158, [2-(3-{2-[5-Cyclohexyl-1-(3,3-dimethyl-2-oxo-butyl)-2-oxo-1,2-dihydro-3H-1,3,4-benzotriazepin-3-yl]-acetylamino}-phenyl)-pyrrol-1-yl]-acetic acid]	4.27
